Data on one compound can be found in PMC12822184, “Targeting E2F8 sensitizes gemcitabine-resistant gallbladder cancer to PARP inhibitors by disrupting RRM2-driven DNA repair” (Journal of Experimental & Clinical Cancer Research : CR, 2025).

Chains of the proteins cited; added tags and fusions are not shown. Residues count along the entry.
UniProt A0AVK6, 110-350 limits assumed: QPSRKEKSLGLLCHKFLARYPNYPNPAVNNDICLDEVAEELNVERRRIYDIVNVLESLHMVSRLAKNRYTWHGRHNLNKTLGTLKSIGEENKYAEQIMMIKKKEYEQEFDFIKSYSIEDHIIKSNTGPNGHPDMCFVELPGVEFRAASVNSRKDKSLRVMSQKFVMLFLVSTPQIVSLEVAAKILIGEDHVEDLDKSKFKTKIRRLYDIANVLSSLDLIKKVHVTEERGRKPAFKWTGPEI

This assay deals with E2F8 DNA-binding domain (Homo sapiens, UniProt A0AVK6). Nature of the assay: SPR (Biacore 8K, CM5 amine coupling, steady-state […]). To be noted: 20 mM HEPES pH 7.5, 200 mM NaCl, 1% DMSO, 25 °C; protein immobilized. On the technique in general: In SPR one partner is held on a chip, and binding of the other changes the refractive index at the surface.

Compound `COc1ccccc1OCC(=O)NN=Cc1ccc(OCC(=O)O)c(OCC(=O)O)c1` returned a Kd of 10.5 µM.

As usually defined, the Kd is the free concentration of one partner at which half of the binding sites on the other are occupied at equilibrium, for simple one-to-one binding.
